The source of these data is patent EP3120851A1, “4-AMINO-6-(2,6-DICHLOROPHENYL)-8-METHYL-2-(PHENYLAMINO)-PYRIDO[2,3-D]PYRIMIDIN-7(8H)-ONE FOR TREATMENT OF SOLID CANCERS” (Pangaea Biotech S.L., priority 2015, dated 2017).

For experiment [1], the system named is NSCLC patients with ALK transforming rearrangements. Particulars: phase I clinical trial, Kwak et al., N Engl J Med, 2010, cited from earlier work.
Another experiment has as its system H2228 Cells. Put plainly: MTT cell viability assay, combinations (Chou-Talalay method). It counts as cell-based. Particulars: TKI single agent vs with compound (1). How it is done: (§1) The combinations comprising the compound of formula (1) were tested using an MTT proliferation assay in a panel of tumor cell lines of different origins. All culture materials were obtained from the sources described in Example 2. In the Chou-Talalay method, which is the standard, universally known methodology to determine drug interactions, the two drugs under study are maintained at a fixed ratio of IC50 single agent (drug 1):IC50 single agent (drug 2) while the concentration of total amount of drugs in the combination is varied and the 20% (IC20), 50% (IC50) and 80% (IC80) of growth inhibition of the combination is determined.
(§2) In the activity assays on cell lines the following terms are used: • IC50: Drug concentration at which 50% growth inhibition is achieved. • TKI IC50: The IC50 of the tyrosine kinase inhibitor as single agent. • Compound (1) IC50: The IC50 of compound (1) as single agent. • CI@IC20: The combination index of the combination consisting of drug 1 and drug 2 at a weight ratio equal to IC50 of drug 1:IC50 of drug 2 wherein said combination is used at a total amount that achieves 20% of growth inhibition. • CI@IC50: The combination index of the combination consisting of drug 1 and drug 2 at a weight ratio equal to IC50 of drug 1:IC50 of drug 2, wherein said combination is used at a total amount that achieves 50% of growth inhibition. • CI@IC80: The combination index of the combination consisting of drug 1 and drug 2 at a weight ratio equal to IC50 of drug 1:IC50 of drug 2, wherein said combination is used at a total amount that achieves 80% of growth inhibition. • Combination TKI IC50: The combination index at a tyrosine kinase inhibitor concentration that corresponds to the IC50 (single agent). • The combination index (CI) concept was introduced by Chou T.C. and Talalay P.(Chou TC, Talalay P. Adv Enzyme Regul 1984;22:27-55). The derived combination index equation for two drugs is (D = dosage or concentration): CI = ((D)1)/((Dx)1) + ((D)2)/((Dx)2) [formula] where (Dx)1 is the concentration of drug 1 "alone" that inhibits growth at a x% (i.e. (D50)1 is the concentration of drug 1 "alone" that inhibits growth at a 50%), (Dx)2 is the concentration of drug 2 "alone" that inhibits growth at a x%, (D)1 and (D)2 refer to the concentration of drug 1 and drug 2, respectively, in the combination, wherein the combination inhibits growth at the same x%. The CI Value quantitatively defines synergism (CI<1) (in particular, CI values of CI<0.7 indicates strong synergism, 0.7<CI<0.85 indicates moderate synergism, 0.85<CI<1 indicates slight synergism), additive effect (CI=1) and antagonism (CI>1). Based on the above equation, a plot of CI values at different effect levels (fa's) can be determined. Entering a series of "dose" ((D1), (D2), ((Dx)1 and (Dx)2) and % of growth inhibition (%x or effect (fa))" into an excel sheet for each drug alone and their combinations, the CI values at different x% (or fa levels) are obtained using the above equation. This plot is also called the Fa-CI plot or the Chou-Talalay plot.
(§3) Cell viability in response to combination treatment was assessed by the Thiazolyl Blue Tetrazolium Bromide (MTT) (Sigma, St Louis, MO) assay. Cells from each cell line were seeded at 2000 to 10000 per well in 96-well plates. […] Twenty-four hours after seeding, cells were exposed to compound (1), commercial drug or combinations thereof for 72 h. […]

The test system of a further experiment is HCC78 cells. The description is as above. The experiment is classed as cell-based. Particulars: TKI single agent vs with compound (1). How it is done:
as §1, §2, §3

The test system of a further experiment is H3122 Cells. The experiment is described as above. It counts as cell-based. Particulars: TKI single agent vs with compound (1). How it is done: as §1, §2, §3

Structures are written as SMILES.

Consider `C[C@@H](Oc1cc(-c2cnn(C3CCNCC3)c2)cnc1N)c1c(Cl)ccc(F)c1Cl` [Crizotinib, 3-[(1R)-1-(2,6-dichloro-3-fluorophenyl)ethoxy]-5-(1-piperidin-4-ylpyrazol-4-yl)pyridin-2-amine], for which the “probability of progression-free survival at 6 months” value in experiment [1] (6 months) is on record as 72%. Moreover, the overall response rate in experiment [1] is on record as 57%. Besides, the “Fold change in the TKI IC50” value in the experiment with H2228 Cells was 4.717 fold; with HCC78 cells, 28.755 fold; with HCC78 cells (listed as crizotinib) it was roughly 30 fold; in the experiment with H3122 Cells, 6.552 fold; in the experiment with H3122 Cells (listed as crizotinib), 6.5 fold.
